{"source": "patent US20140234345A1", "about": "“NOVEL ANTI-CANCER ISOCARBOSTYRIL ALKALOID CONJUGATES” (priority 2011, published 2014)", "origin": "cited, not measured here", "details": "9 consecutive days given intravenously; cited from earlier work"}
{"substance": "d-alpha-tocopheryl polyethylene glycol 1000 succinate [Vitamin E]", "values": [{"measurement": "dose well tolerated in humans", "value": "up to 2.3 g m^−2"}]}
